Measured values published in US9908893B2, “Thieno [2,3-b] pyridines as multidrug resistance modulators” (Latvian Institute of Organic Synthesis, priority 2013, dated 2018).

The chains behind the UniProt entries cited, without tags or fusion partners. Where a name states a change or a piece, a line headed by the entry shows the natural chain unless it says otherwise.
UniProt P33527: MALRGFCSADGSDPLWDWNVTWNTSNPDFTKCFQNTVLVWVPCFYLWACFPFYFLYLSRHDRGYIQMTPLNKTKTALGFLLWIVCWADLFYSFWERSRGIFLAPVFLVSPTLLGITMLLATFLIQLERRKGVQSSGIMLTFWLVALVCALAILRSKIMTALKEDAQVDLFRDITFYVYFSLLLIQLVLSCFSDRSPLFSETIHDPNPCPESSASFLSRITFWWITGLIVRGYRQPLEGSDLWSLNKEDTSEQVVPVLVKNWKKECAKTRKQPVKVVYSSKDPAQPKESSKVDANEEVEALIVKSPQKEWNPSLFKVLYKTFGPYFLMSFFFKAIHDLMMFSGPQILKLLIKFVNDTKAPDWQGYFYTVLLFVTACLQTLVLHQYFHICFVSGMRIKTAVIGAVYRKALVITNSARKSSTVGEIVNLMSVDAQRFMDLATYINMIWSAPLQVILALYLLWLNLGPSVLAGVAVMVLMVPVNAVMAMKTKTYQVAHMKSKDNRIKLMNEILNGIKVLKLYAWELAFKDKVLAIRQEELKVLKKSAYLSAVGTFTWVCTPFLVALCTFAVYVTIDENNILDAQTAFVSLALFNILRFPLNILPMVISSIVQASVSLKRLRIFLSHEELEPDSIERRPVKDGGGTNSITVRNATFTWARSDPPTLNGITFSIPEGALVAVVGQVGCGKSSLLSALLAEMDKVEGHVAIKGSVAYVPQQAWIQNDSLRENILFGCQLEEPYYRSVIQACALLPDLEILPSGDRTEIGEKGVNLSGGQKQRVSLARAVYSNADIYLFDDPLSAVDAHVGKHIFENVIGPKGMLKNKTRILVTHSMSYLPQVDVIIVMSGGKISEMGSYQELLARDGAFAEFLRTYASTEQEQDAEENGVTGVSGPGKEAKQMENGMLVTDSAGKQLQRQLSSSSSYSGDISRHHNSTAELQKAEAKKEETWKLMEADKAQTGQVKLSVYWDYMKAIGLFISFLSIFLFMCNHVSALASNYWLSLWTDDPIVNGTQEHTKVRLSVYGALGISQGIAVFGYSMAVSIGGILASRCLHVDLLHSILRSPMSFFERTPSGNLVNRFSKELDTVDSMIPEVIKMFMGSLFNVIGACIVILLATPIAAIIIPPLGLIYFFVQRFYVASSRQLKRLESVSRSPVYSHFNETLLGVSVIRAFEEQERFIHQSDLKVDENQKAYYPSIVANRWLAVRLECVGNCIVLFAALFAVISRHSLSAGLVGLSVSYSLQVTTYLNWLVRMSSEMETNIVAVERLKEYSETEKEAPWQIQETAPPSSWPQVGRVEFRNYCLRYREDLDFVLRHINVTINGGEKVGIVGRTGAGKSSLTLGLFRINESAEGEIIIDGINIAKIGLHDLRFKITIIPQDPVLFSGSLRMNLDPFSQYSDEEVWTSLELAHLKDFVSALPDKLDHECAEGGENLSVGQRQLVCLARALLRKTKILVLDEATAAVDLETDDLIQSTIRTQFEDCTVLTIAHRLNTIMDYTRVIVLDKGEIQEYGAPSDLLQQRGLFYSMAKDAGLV
UniProt Q9UNQ0: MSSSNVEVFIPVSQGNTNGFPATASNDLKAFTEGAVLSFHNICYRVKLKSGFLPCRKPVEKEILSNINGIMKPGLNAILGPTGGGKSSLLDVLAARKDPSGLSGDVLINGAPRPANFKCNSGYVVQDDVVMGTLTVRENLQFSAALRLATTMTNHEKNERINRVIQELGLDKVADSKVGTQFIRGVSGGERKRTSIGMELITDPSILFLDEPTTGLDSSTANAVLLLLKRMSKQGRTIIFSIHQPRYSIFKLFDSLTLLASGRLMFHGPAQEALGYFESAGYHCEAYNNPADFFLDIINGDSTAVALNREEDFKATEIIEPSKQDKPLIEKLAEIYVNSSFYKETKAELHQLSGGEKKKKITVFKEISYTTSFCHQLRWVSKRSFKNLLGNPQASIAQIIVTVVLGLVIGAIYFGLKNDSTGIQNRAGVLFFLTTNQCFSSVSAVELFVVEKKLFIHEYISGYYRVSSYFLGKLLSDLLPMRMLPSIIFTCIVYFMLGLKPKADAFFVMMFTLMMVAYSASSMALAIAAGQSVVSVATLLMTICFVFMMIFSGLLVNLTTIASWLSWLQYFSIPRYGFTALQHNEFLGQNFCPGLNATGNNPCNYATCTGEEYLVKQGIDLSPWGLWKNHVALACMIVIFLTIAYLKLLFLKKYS
UniProt P08183, whole entry: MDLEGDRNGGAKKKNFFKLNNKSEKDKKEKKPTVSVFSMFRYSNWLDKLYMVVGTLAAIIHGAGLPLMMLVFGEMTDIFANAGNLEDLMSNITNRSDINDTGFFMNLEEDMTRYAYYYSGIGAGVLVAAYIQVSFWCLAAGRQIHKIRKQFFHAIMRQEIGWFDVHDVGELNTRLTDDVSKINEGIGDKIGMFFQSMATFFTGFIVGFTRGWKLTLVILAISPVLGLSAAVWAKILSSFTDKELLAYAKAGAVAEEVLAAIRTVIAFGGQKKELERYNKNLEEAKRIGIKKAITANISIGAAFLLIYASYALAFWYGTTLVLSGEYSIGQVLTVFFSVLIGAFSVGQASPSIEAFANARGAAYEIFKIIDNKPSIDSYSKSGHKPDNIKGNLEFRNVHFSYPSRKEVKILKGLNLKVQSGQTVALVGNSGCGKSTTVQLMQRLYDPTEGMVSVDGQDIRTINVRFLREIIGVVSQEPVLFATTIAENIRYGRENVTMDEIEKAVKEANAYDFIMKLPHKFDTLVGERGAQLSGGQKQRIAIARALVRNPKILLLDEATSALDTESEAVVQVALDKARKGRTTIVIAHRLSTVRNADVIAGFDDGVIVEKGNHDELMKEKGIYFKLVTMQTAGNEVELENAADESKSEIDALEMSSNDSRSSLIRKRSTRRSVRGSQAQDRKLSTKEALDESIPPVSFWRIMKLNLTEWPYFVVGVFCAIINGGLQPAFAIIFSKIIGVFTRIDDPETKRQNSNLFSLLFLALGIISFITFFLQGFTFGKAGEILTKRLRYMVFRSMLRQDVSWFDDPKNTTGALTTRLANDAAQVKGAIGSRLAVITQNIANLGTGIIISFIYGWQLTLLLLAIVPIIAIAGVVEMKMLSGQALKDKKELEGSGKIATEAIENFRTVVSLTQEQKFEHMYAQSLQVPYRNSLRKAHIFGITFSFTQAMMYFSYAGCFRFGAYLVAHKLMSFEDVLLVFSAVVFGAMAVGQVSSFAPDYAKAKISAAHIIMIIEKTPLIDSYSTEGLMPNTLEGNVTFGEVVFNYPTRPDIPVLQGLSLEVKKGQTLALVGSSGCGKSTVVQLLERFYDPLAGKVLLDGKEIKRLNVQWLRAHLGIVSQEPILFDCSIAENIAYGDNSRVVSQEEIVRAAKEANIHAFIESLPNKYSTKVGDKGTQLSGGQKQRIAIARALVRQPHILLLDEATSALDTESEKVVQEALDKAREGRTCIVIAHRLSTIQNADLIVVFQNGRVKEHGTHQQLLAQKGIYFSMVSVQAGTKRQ

Key:
[1] = molecular target: T1, MRP1 (Homo sapiens, UniProt P33527); conditions: calcein AM assay, DOX resistant H69AR cells
[2] = molecular target: T2, BCRP1 (Homo sapiens, UniProt Q9UNQ0); conditions: Hoechst 33342, mitoxantrone resistant MES-SA/MX2 cells
[3] = molecular target: P-glycoprotein (P-gp) (Homo sapiens, UniProt P08183); test: Measurement of P-glycoprotein activity: rhodamine 123 accumulation in MES-SA and MES-SA/Dx5 cells
[4] = molecular target: T1, MRP1; test: cell-based
[5] = molecular target: T2, BCRP1; test: cell-based
[6] = rhodamine 123 accumulation, doxorubicin resistant MES-SA/Dx5 cells

Row | SMILES | MDR, EC50, MRP1 [1] | MDR, EC50, BCRP1 [2] | MDR, EC50, P-gp [3, 6] | EC50 ([2]; read-out: MDR, EC50, BCRP1) [µM] | EC50 ([3]; read-out: MDR, EC50, P-gp, rhodamine 123 accumulation, doxorubicin resistant MES-SA/Dx5 cells) [µM] | EC50 [4] [µM] | EC50 [5] [µM] | EC50 [3] [µM]
1 | COC(=O)c1c(C)nc2sc(C(=O)c3cc(OC)c(OC)c(OC)c3)c(N)c2c1-c1cc(OC)c(OC)c(OC)c1 | No effect | No effect | No effect | – | – | – | – | –
2 | CCOC(=O)c1c(C)nc2sc(C(=O)c3ccc(OC)cc3)c(N)c2c1-c1cccc(OC)c1 | No effect | No effect | No effect | – | – | – | – | –
3 | CCCOCCOC(=O)c1c(C)nc2sc(C(=O)c3ccc(OC)cc3OC)c(N)c2c1-c1cc(OC)c(OC)c(OC)c1 | No effect | – | – | 0.6 ± 0.1 | 0.6 ± 0.1 | – | – | –
4 | CCCOCCOC(=O)c1c(C)nc2sc(C(=O)c3cc(OC)c(OC)c(OC)c3)c(N)c2c1-c1cc(OC)c(OC)c(OC)c1 | No effect | No effect | No effect | – | – | – | – | –
5 | COc1ccc(C(=O)c2sc3nc(C)c(C(C)=O)c(-c4ccc(OC)c(OC)c4)c3c2N)cc1 [Compound 1, 5-Acetyl-3-amino-4-(3,4-dimethoxyphenyl)-2-(4-methoxybenzoyl)-6-methyl-thieno[2,3-b]pyridine] | – | – | – | – | – | 8.9 ± 1.4 | 9.1 ± 0.1 | 11.5 ± 0.5
6 | COc1ccc(C(=O)c2sc3nc(C)c(C(C)=O)c(-c4ccc(OC)c(OC)c4)c3c2N)c(OC)c1 [Compound 2, 5-Acetyl-3-amino-2-(2,4-dimethoxybenzoyl)-4-(3,4-dimethoxyphenyl)-6-methyl-thieno[2,3-b]pyridine] | – | – | – | – | – | 11.8 ± 1.2 | 5.5 ± 0.4 | 13.8 ± 0.3
7 | COc1ccc(C(=O)c2sc3nc(C)c(C(C)=O)c(-c4cc(OC)c(OC)c(OC)c4)c3c2N)c(OC)c1 [Compound 4, 5-Acetyl-3-amino-2-(2,4-dimethoxybenzoyl)-6-methyl-4-(3,4,5-trimethoxyphenyl)-thieno[2,3-b]pyridine] | – | No effect | – | – | – | 7.7 ± 0.4 | – | 8.5 ± 0.7
8 | COC(=O)c1c(C)nc2sc(C(=O)c3ccc(F)cc3)c(N)c2c1-c1cc(OC)c(OC)c(OC)c1 [Compound 8, 3-Amino-2-(4-fluorobenzoyl)-6-methyl-4-(3,4,5-trimethoxyphenyl)thieno[2,3-b]-pyridine-5-carboxylic acid methyl ester] | – | – | – | – | – | 10.4 ± 1.2 | 2.7 ± 0.5 | 11 ± 1
9 | COC(=O)c1c(C)nc2sc(C(=O)c3ccc(Cl)cc3)c(N)c2c1-c1cc(OC)c(OC)c(OC)c1 [Compound 9, 3-Amino-2-(4-chlorobenzoyl)-6-methyl-4-(3,4,5-trimethoxyphenyl)thieno[2,3-b]-pyridine-5-carboxylic acid methyl ester] | No effect | – | – | – | – | – | 1.4 ± 0.3 | 10.8 ± 1.6
10 | COC(=O)c1c(C)nc2sc(C(=O)c3ccc(OC)cc3)c(N)c2c1-c1cc(OC)c(OC)c(OC)c1 [Compound 10, 3-Amino-2-(4-methoxybenzoyl)-6-methyl-4-(3,4,5-trimethoxyphenyl)thieno[2,3-b]pyridine-5-carboxylic acid methyl ester] | – | – | – | – | – | 4.5 ± 0.5 | 4 ± 0.8 | 1.5 ± 0.2
11 | COC(=O)c1c(C)nc2sc(C(=O)c3ccc(OC)cc3OC)c(N)c2c1-c1cc(OC)c(OC)c(OC)c1 [Compound 11, 3-Amino-2-(2,4-dimethoxybenzoyl)-6-methyl-4-(3,4,5-trimethoxyphenyl)thieno[2,3-b]pyridine-5-carboxylic acid methyl ester] | – | – | – | – | – | 7.1 ± 0.6 | 1.7 ± 0.2 | 6.9 ± 0.9
12 | CCOC(=O)c1c(C)nc2sc(C(=O)c3ccc(OC)cc3)c(N)c2c1-c1ccc(O)cc1 [Compound 14, 3-Amino-4-(4-hydroxyphenyl)-2-(4-methoxybenzoyl)-6-methylthieno[2,3-b]-pyridine-5-carboxylic acid ethyl ester] | – | – | – | – | – | 30.7 ± 6 | 10.2 ± 1.6 | 26 ± 4.2
13 | CCOC(=O)c1c(C)nc2sc(C(=O)c3ccc(OC)cc3)c(N)c2c1-c1ccc(O)c(OC)c1 [Compound 16, 3-Amino-4-(4-hydroxy-3-methoxyphenyl)-2-(4-methoxybenzoyl)-6-methyl-thieno[2,3-b]pyridine-5-carboxylic acid ethyl ester] | – | – | – | – | – | 4.9 ± 0.2 | 3.3 ± 1.1 | 5.3 ± 0.8
14 | CCOC(=O)c1c(C)nc2sc(C(=O)c3ccc(F)cc3)c(N)c2c1-c1ccc(OC)c(OC)c1 [Compound 18, 3-Amino-4-(3,4-dimethoxyphenyl)-2-(4-fluorobenzoyl)-6-methylthieno[2,3-b]-pyridine-5-carboxylic acid ethyl ester] | – | – | – | – | – | 22.1 ± 2 | 3 ± 0.8 | 26.7 ± 0.9
15 | CCOC(=O)c1c(C)nc2sc(C(=O)c3ccc(Cl)cc3)c(N)c2c1-c1ccc(OC)c(OC)c1 [Compound 19, 3-Amino-2-(4-chlorobenzoyl)-4-(3,4-dimethoxyphenyl)-6-methylthieno[2,3-b]-pyridine-5-carboxylic acid ethyl ester] | No effect | – | – | – | – | – | 5.7 ± 0.9 | 28.4 ± 2.5
16 | CCOC(=O)c1c(C)nc2sc(C(=O)c3ccc(OC)cc3)c(N)c2c1-c1ccc(OC)c(OC)c1 [Compound 20, 3-Amino-4-(3,4-dimethoxyphenyl)-2-(4-methoxybenzoyl)-6-methylthieno[2,3-b]-pyridine-5-carboxylic acid ethyl ester] | – | – | – | – | – | 9.4 ± 1.6 | 1.1 ± 0.3 | 9.9 ± 1.6
17 | CCOC(=O)c1c(C)nc2sc(C(=O)c3ccc(OC)cc3OC)c(N)c2c1-c1ccc(OC)c(OC)c1 [Compound 21, 3-Amino-2-(2,4-dimethoxybenzoyl)-4-(3,4-dimethoxyphenyl)-6-methyl-thieno[2,3-b]pyridine-5-carboxylic acid ethyl ester] | – | – | – | – | – | 8 ± 0.2 | 2 ± 0.4 | 8.2 ± 1
18 | CCOC(=O)c1c(C)nc2sc(C(=O)c3ccc(F)cc3)c(N)c2c1-c1cc(OC)c(OC)c(OC)c1 [Compound 22, 3-Amino-2-(4-fluorobenzoyl)-4-(3,4,5-trimethoxyphenyl)-6-methylthieno[2,3-b]-pyridine-5-carboxylic acid ethyl ester] | – | – | – | – | – | 8.6 ± 0.1 | 1.1 ± 0.4 | 4 ± 0.2
19 | CCOC(=O)c1c(C)nc2sc(C(=O)c3ccc(Cl)cc3)c(N)c2c1-c1cc(OC)c(OC)c(OC)c1 [Compound 23, 3-Amino-2-(4-chlorobenzoyl)-4-(3,4,5-trimethoxyphenyl)-6-methylthieno[2,3-b]-pyridine-5-carboxylic acid ethyl ester] | – | – | – | – | – | 30.4 ± 1.3 | 8.1 ± 1.3 | 3.2 ± 0.7
20 | CCOC(=O)c1c(C)nc2sc(C(=O)c3ccc(OC)cc3)c(N)c2c1-c1ccc(Cl)cc1 [Compound 28, 3-Amino-4-(4-chlorophenyl)-2-(4-methoxybenzoyl)-6-methylthieno[2,3-b]-pyridine-5-carboxylic acid ethylester] | No effect | – | – | – | – | – | 2.7 ± 0.6 | 10 ± 0.2
21 | CCOC(=O)c1c(C)nc2sc(C(=O)c3ccc(OC)cc3)c(N)c2c1-c1ccc(N(C)C)cc1 [Compound 29, 3-Amino-4-(4-dimethylaminophenyl)-2-(4-methoxybenzoyl)-6-methylthieno[2,3-b]-pyridine-5-carboxylic acid ethylester] | No effect | – | – | – | – | – | 0.5 ± 0.1 | 1.8 ± 0.6
22 | COCCOC(=O)c1c(C)nc2sc(C(=O)c3cccc(OC)c3)c(N)c2c1-c1cc(OC)c(OC)c(OC)c1 [Compound 33, 3-Amino-2-(3-methoxybenzoyl)-6-methyl-4-(3,4,5-trimethoxyphenyl)thieno[2,3-b]-pyridine-5-carboxylic acid 2-methoxyethyl ester] | No effect | – | – | – | – | – | 1.2 ± 0.3 | 1.3 ± 0.1
23 | CCOC(=O)c1c(-c2cc(OC)c(OC)c(OC)c2)nc2sc(C(=O)c3cc(OC)c(OC)c(OC)c3)c(N)c2c1-c1cc(OC)c(OC)c(OC)c1 [Compound 40, 3-Amino-4,6-bis-(3,4,5-trimethoxyphenyl)-2-(3,4,5-trimethoxybenzoyl)-thieno[2,3-b]pyridine-5-carboxylic acid ethyl ester] | No effect | – | – | – | – | – | 0.4 ± 0.1 | 3.4 ± 0.4

Like-named read-outs stand apart in the source and are kept apart here.
